From PubChem BioAssay AID493239 (Broad Institute, 2011) come the findings set out here.

The list shows a part of the results, in another mix than the full data. Activity calls are given as the source filed them.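 How the source made its calls: active means fitted curve crosses 40% activation at or below the top valid dose tested for that sample; inconclusive means flat fit between 30 and 70% activation, or poor fit; inactive means the rest, including activity in the opposite direction.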

A short description of the experiment: GFP-HIF1alpha nuclear accumulation inducers, dose response, orthogonal assay for HIF pathway activator project, imaging, U2OS, high content, dry powder, set 3 (AID 493239). The conditions noted are these: U2OS GFP-HIF1alpha nuclear intensity imaging; at 38 µM (top of the series). The method, boiled down: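 Material: human osteosarcoma U2OS cells expressing GFP-HIF1alpha fusion; amount: 2,000 cells/well; compound: 8 concentrations, 3-fold steps; incubation: cells plated one day before dosing, compound exposure 24 h at 37 °C; measured by: 10X fluorescence microscopy, fixed cells, DAPI nuclear stain; control set: Desferrioxamine as positive control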

As for `O=c1[nH]c2ccccc2n1C1CCN(Cc2ccc(O)c3ncccc23)CC1`, the activation is inactive: 24.6%.
